Results published in PubChem BioAssay AID652010 (The Scripps Research Institute Molecular Screening Center, 2013).
This is a selection; strong and weak results do not stand in their true shares. Calls of active or inactive are those of the source.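 How the source made its calls: active means inhibition above the mean over all tested compounds plus 3 SD (cut at about 3.6% in these data); inactive means the rest.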

Assay: DAX1 (NR0B1) inhibitors on StAR promoter, primary screen, cell-based, luminescence, SF-1 (NR5A1), full-length DAX-1 (AID 652010);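 further: 0% = DAX-1 cells with DMSO and 100% = cells lacking DAX-1 with DMSO; higher inhibition means more luminescence from relief of DAX-1 repression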
Settings: HEK293T StAR-luciferase reporter, SF-1/DAX-1 repression relief; at 6.8 µM; active compounds read high

Q: With `COc1cc(C(=O)NCC2(N3CCOCC3)CCCCC2)ccc1OCC(C)C` as the compound, how does the inhibition read?
A: Its inhibition is inactive: 2.21%.

Q: For `O=[N+]([O-])c1ccc(-c2cc([N+](=O)[O-])c(O)c([N+](=O)[O-])c2)cc1`, which inhibition is on record?
A: Its inhibition is inactive: -0.62%.

Q: Which inhibition does the source give for `O=[As](O)(c1ccc(O)cc1)c1ccccc1O` here?
A: Its inhibition is inactive: -0.14%.

Q: For `C[As](=O)(O)c1cccc(C(=O)O)c1`, which inhibition is on record?
A: The inhibition was inactive: -0.03%.

Q: With `Cc1ccc2nc3c(c(C)c2c1)CC(C(Cl)Cl)S3` (configuration not stated) as the compound, how does the inhibition read?
A: The inhibition was inactive: 0.7%.

Q: With `[N-]=[N+]=NC1CCCCC1NC(=O)c1cc([N+](=O)[O-])cc([N+](=O)[O-])c1` (configuration not stated) as the compound, how does the inhibition read?
A: Its inhibition is inactive: 0.81%.

Q: For `Cc1ccc(OP(=O)(Nc2ccc([N+](=O)[O-])cn2)Oc2ccc(C)cc2)cc1`, which inhibition is on record?
A: The inhibition was inactive: 1.22%.

Q: Which inhibition does the source give for `COc1ccc(N/C(=N/P(=O)(N2CCOCC2)N2CCOCC2)N2CCOCC2)cc1` here?
A: The inhibition was inactive: -0.17%.

Q: With `O=[N+]([O-])c1cc(Oc2ccc([N+](=O)[O-])cc2C(F)(F)F)cc([N+](=O)[O-])c1` as the compound, how does the inhibition read?
A: Its inhibition is inactive: -3.23%.

Q: Which inhibition does the source give for `Cc1cc(=O)[nH]c(N[N+](=O)[O-])n1` here?
A: Its inhibition is inactive: 0.53%.

Q: For `O=C(OC1CN2CCC1CC2)C12CC3CC(CC(C3)C1)C2` (configuration not stated), which inhibition is on record?
A: Its inhibition is inactive: -0.37%.

Q: Which inhibition does the source give for `Cc1c2c(nc3ccccc13)SC(C(Cl)Cl)C2` (configuration not stated) here?
A: Its inhibition is inactive: 0.36%.

Q: For `COc1cc(I)ccc1[As](=O)(O)O`, which inhibition is on record?
A: The inhibition was inactive: -0.5%.

Q: With `COc1ccc2nc(NP(=O)(c3ccccc3)c3ccccc3)sc2c1` as the compound, how does the inhibition read?
A: Its inhibition is inactive: 0.08%.

Q: With `O=P1(N(CCCl)CCCl)Nc2ccccc2N1` as the compound, how does the inhibition read?
A: The inhibition was inactive: 3.43%.

Q: With `O=P1(N(CCCl)CCCl)OCCCN1CCCl` (configuration not stated) as the compound, how does the inhibition read?
A: The inhibition was inactive: -0.17%.

Q: Which inhibition does the source give for `CCOC(=O)c1ccc(NC(=O)C(C)(CCl)SC)cc1` (configuration not stated) here?
A: Its inhibition is inactive: 0.54%.

Q: With `O=C(OC1CN2CCC1CC2)c1cccc([N+](=O)[O-])c1` (configuration not stated) as the compound, how does the inhibition read?
A: Its inhibition is inactive: 0.17%.

Q: For `CCC(C)N(CC(C)C)C(=S)SC(NC(C)=O)C(Cl)(Cl)Cl` (configuration not stated), which inhibition is on record?
A: Its inhibition is inactive: 0.07%.

Q: With `COC(=O)C1(C)COP(=O)(N2CCCC2)OC1` (configuration not stated) as the compound, how does the inhibition read?
A: Its inhibition is inactive: 1.08%.

Q: With `COP1(=S)c2c(C)nn(CCC#N)c2N=C(c2ccc(F)cc2)N1C` (configuration not stated) as the compound, how does the inhibition read?
A: Its inhibition is inactive: 0.52%.

Q: Which inhibition does the source give for `O=C(Nc1ccncc1[N+](=O)[O-])c1ccc([N+](=O)[O-])cc1[N+](=O)[O-]` here?
A: The inhibition was inactive: -0.7%.

Q: For `O=C(COc1ccccc1)OC1CN2CCC1CC2` (configuration not stated), which inhibition is on record?
A: Its inhibition is inactive: -0.03%.

Q: For `O=C(O)C(=O)c1ccc(N(CCCl)CCCl)cc1`, which inhibition is on record?
A: The inhibition was inactive: -0.71%.

Q: For `CCOC(=O)Nc1cccc([As](=O)(O)O)c1`, which inhibition is on record?
A: The inhibition was inactive: -0.13%.

Q: For `O=[N+]([O-])c1ccc(Nc2ccc(Oc3ccc([N+](=O)[O-])cc3[N+](=O)[O-])cc2)c([N+](=O)[O-])c1`, which inhibition is on record?
A: The inhibition was inactive: -0.33%.

Q: With `O=P(Nc1ccccn1)(c1cccc2ccccc12)c1cccc2ccccc12` as the compound, how does the inhibition read?
A: The inhibition was inactive: -0.59%.

Q: Which inhibition does the source give for `Cc1cc(SC(NC=O)C(Cl)(Cl)Cl)ncn1` (configuration not stated) here?
A: The inhibition was inactive: -0.19%.

Q: Which inhibition does the source give for `CC1CCNP(=O)(N(CCCl)CCCl)O1` (configuration not stated) here?
A: Its inhibition is inactive: 0.95%.

Q: Which inhibition does the source give for `CCOC(=O)Nc1ccc([As](=O)(O)O)c(O)c1` here?
A: The inhibition was inactive: -0.15%.

Q: With `O=C(O)C(O)c1ccc(N(CCCl)CCCl)cc1` (configuration not stated) as the compound, how does the inhibition read?
A: The inhibition was inactive: -0.06%.

Q: With `Cc1cc(SC(NC(=O)c2ccccc2)C(Cl)(Cl)Cl)nc(C(C)C)n1` (configuration not stated) as the compound, how does the inhibition read?
A: Its inhibition is inactive: -0.58%.

Q: For `CCCCOc1ccc(C(=O)NCC2(N3CCCCC3)CCCCC2)cc1OC`, which inhibition is on record?
A: Its inhibition is inactive: 1.43%.

Q: For `COP(=O)(OC)N1CC1c1ccccc1` (configuration not stated), which inhibition is on record?
A: The inhibition was inactive: 0.11%.

Q: With `O=P1(Nc2ncccn2)COc2ccccc2OC1` as the compound, how does the inhibition read?
A: Its inhibition is inactive: 0.22%.

Q: With `Cc1ccc(S(=O)(=O)N(CCCN)CCCc2c(C)nc(N)[nH]c2=O)cc1` as the compound, how does the inhibition read?
A: Its inhibition is inactive: 0.53%.

Q: Which inhibition does the source give for `O=P1(Nc2ccc(Br)cn2)COc2ccccc2OC1` here?
A: The inhibition was inactive: -1.19%.

Q: With `NS(=O)(=O)c1cccc(NC(=O)COC(=O)C(O)(c2ccccc2)c2ccccc2)c1` as the compound, how does the inhibition read?
A: Its inhibition is inactive: -1.53%.

Q: Which inhibition does the source give for `O=[As](O)(c1cccs1)c1cccs1` here?
A: Its inhibition is inactive: -0.05%.

Q: Which inhibition does the source give for `Cc1ccc(OCC(=O)OC2CN3CCC2CC3)cc1` (configuration not stated) here?
A: The inhibition was inactive: -0.23%.

Q: With `Nc1cccc([As](=O)(O)c2ccccc2)c1` as the compound, how does the inhibition read?
A: The inhibition was inactive: 0.84%.

Q: With `CC1CCC(C(C)C)C(OP(=O)(Nc2ccccn2)c2ccccc2)C1` (configuration not stated) as the compound, how does the inhibition read?
A: The inhibition was inactive: -0.35%.

Q: For `Cc1ccc(C(=O)OC2CN3CCC2CC3)cc1` (configuration not stated), which inhibition is on record?
A: Its inhibition is inactive: 0.22%.

Q: With `Cc1nn(-c2ccccc2)c2c1P(=O)(N1CCOCC1)N(C)C(c1ccccc1)=N2` (configuration not stated) as the compound, how does the inhibition read?
A: The inhibition was inactive: -0.42%.

Q: For `CCCC1OP(=O)(Nc2ccccc2)OCC1CC` (configuration not stated), which inhibition is on record?
A: The inhibition was inactive: -0.45%.

Q: For `O=C(/C=C/c1ccccc1)OC1CN2CCC1CC2` (configuration not stated), which inhibition is on record?
A: Its inhibition is inactive: 0.13%.

Q: Which inhibition does the source give for `CN(C)C1(CNC(=O)c2ccc(S(C)(=O)=O)cc2)CCCCC1` here?
A: Its inhibition is inactive: -0.17%.

Q: For `COc1ccccc1CNC(=O)COC(=O)C(O)(c1ccccc1)c1ccccc1`, which inhibition is on record?
A: The inhibition was inactive: 2.24%.

Q: For `CC1(CBr)Cn2c(nc3ccccc3c2=O)S1` (configuration not stated), which inhibition is on record?
A: Its inhibition is inactive: -0.44%.

Q: With `CN(C(=O)Cc1ccc(Cl)c(Cl)c1)C1CCCC[C@@H]1N1CCCC1` (some centres not stated) as the compound, how does the inhibition read?
A: Its inhibition is inactive: 0.58%.

Q: With `CC(C)/C=N\N=C(\N)N[N+](=O)[O-]` as the compound, how does the inhibition read?
A: Its inhibition is inactive: -0.05%.

Q: Which inhibition does the source give for `CN(C(=O)Cc1ccc(Cl)c(Cl)c1)[C@@H]1CCCC[C@H]1N1CCCC1` here?
A: Its inhibition is inactive: -0.71%.

Q: With `CN(CCCl)Cc1cc(Cl)c(NC2=NCCN2)c(Cl)c1` as the compound, how does the inhibition read?
A: The inhibition was inactive: 0.18%.

Q: With `CCOP(=O)(Nc1ccc(C)cn1)OCC` as the compound, how does the inhibition read?
A: The inhibition was inactive: -0.37%.

Q: For `CCOP(=O)(NC(=NC(C)c1ccccc1)NC(C)c1ccccc1)OCC` (configuration not stated), which inhibition is on record?
A: Its inhibition is inactive: 0.35%.

Q: With `O=P1(Nc2ccccn2)COc2ccccc2OC1` as the compound, how does the inhibition read?
A: Its inhibition is inactive: 0.34%.

Q: Which inhibition does the source give for `CCC1=CC2Cc3nc4ccc(Cl)cc4c(N)c3C(C1)C2` (configuration not stated) here?
A: The inhibition was inactive: -0.31%.

Q: With `CC(C)(C)C(=O)NC(Sc1ncccn1)C(Cl)(Cl)Cl` (configuration not stated) as the compound, how does the inhibition read?
A: Its inhibition is inactive: 0.19%.

Q: For `O=P1(N(CCCl)CCCl)NCCC(C(F)(F)F)O1` (configuration not stated), which inhibition is on record?
A: Its inhibition is inactive: 0.44%.

Q: Which inhibition does the source give for `Clc1n[nH]nc1-c1nn[nH][15n]1` here?
A: The inhibition was inactive: 0.05%.

Q: Which inhibition does the source give for `CCCOP(=S)(Nc1nc(N)cc(=O)[nH]1)OCCC` here?
A: The inhibition was inactive: 0.9%.

Q: Which inhibition does the source give for `Nc1cccc2c([As](=O)(O)O)cccc12` here?
A: Its inhibition is inactive: -0.11%.

Q: With `Cc1ccc(NCCc2c([N+](=O)[O-])cc([N+](=O)[O-])cc2[N+](=O)[O-])cc1` as the compound, how does the inhibition read?
A: The inhibition was inactive: -1.26%.

Q: Which inhibition does the source give for `CCOP(=O)(Nc1cccc2ccccc12)OCC` here?
A: The inhibition was inactive: 0.34%.

Q: Which inhibition does the source give for `COc1cc(C2NCCC3(OCCO3)C2(C)C)cc(OC)c1OC` (configuration not stated) here?
A: The inhibition was inactive: 0.39%.

Q: For `CS(=O)(=O)c1ccc(Cl)c(NC(=O)COC(=O)C(O)(c2ccccc2)c2ccccc2)c1`, which inhibition is on record?
A: The inhibition was inactive: 0.66%.

Q: For `COc1cc(C(=O)NCC2(N3CCOCC3)CCCCC2)cc(Cl)c1OC(C)C`, which inhibition is on record?
A: Its inhibition is inactive: 0.51%.

Q: Which inhibition does the source give for `O=[As](O)(O)c1cccnc1` here?
A: Its inhibition is inactive: -0.44%.

Q: Which inhibition does the source give for `O=C(OC1CN2CCC1CC2)c1ccc(Cl)cc1` (configuration not stated) here?
A: Its inhibition is inactive: 0.22%.

Q: Which inhibition does the source give for `O=[As](O)(c1cccc(O)c1)c1cccc(O)c1` here?
A: Its inhibition is inactive: -0.3%.

Q: For `Cc1cccc(OCC(=O)OC2CN3CCC2CC3)c1` (configuration not stated), which inhibition is on record?
A: The inhibition was inactive: -0.01%.

Q: For `NC(=O)Nc1ccc([As](=O)(O)O)cc1`, which inhibition is on record?
A: The inhibition was inactive: 0.14%.

Q: With `CN(C(=O)Cc1ccc(Cl)c(Cl)c1)[C@H]1CC[C@@]2(CCCO2)C[C@@H]1N1CCCC1` as the compound, how does the inhibition read?
A: Its inhibition is inactive: 0.68%.

Q: With `CN(C)C(=O)c1cc([N+](=O)[O-])cc2c1-c1c(cc([N+](=O)[O-])cc1[N+](=O)[O-])C2=O` as the compound, how does the inhibition read?
A: Its inhibition is inactive: -1.91%.

Q: With `O=[N+]([O-])c1ccc2c(c1)nnn2O` as the compound, how does the inhibition read?
A: The inhibition was inactive: 0.55%.

Q: For `CCOP1(=S)c2c(C)nn(CCC#N)c2N=C(c2ccc(F)cc2)N1C` (configuration not stated), which inhibition is on record?
A: Its inhibition is inactive: 0.18%.

Q: For `CN(C(=O)Cc1ccccc1)[C@@H]1CC[C@]2(CCCO2)C[C@H]1N1CCCC1`, which inhibition is on record?
A: The inhibition was inactive: 0.11%.

Q: With `N#CCCN(C(=O)COC(=O)C(O)(c1ccccc1)c1ccccc1)c1ccc(F)cc1` as the compound, how does the inhibition read?
A: The inhibition was inactive: 1.21%.

Q: Which inhibition does the source give for `O=P(Nc1nccs1)(Oc1ccccc1)Oc1ccccc1` here?
A: The inhibition was inactive: -0.28%.

Q: With `CCOP1(=S)c2c(C)nn(CCC#N)c2N=C(c2ccccc2F)N1C` (configuration not stated) as the compound, how does the inhibition read?
A: Its inhibition is inactive: 0.64%.

Q: Which inhibition does the source give for `Nc1ccccc1[As](=O)(O)c1ccccc1` here?
A: Its inhibition is inactive: -0.52%.

Q: With `O=C(O)COc1ccc([As](=O)(O)O)cc1[N+](=O)[O-]` as the compound, how does the inhibition read?
A: Its inhibition is inactive: -0.49%.
